Data reported in patent US20240301041A1.

Biological target: S. aureus Newman Δspa (Protein A deficient strain), bacterial surface
Test: flow cytometry on fixed S. aureus Δspa, Fc fragment 5 ug/mL

## Alexa-488 labeled IgG1 Fc fragment (from UniProt P01857 104-330)
  geomean fluorescent signal: 12
